In article PMC11433769:

System: CC(=O)CCO
Assay: purified protein
Details: 0.25 mM NADH, 100 mM potassium phosphate pH 7.0, 40 °C, 0.1 μM enzyme

Substance: ChKRED20 (Chryseobacterium sp. CA49; A150Q/A187G/A46T/E173D/G185C/G94A/H42K/I114V/I86V/Q97K/S153N/Y246N)
- Km: 92.15 ± 14.49 mM
- kcat: 387 s⁻¹
- kcat/Km: 4250 M⁻¹ s⁻¹
